This is an account of results in ChEMBL document CHEMBL6114960, “Discovery of First-in-Class FXR and HSD17B13 Dual Modulator for the Treatment of Metabolic Dysfunction-Associated Fatty Liver Disease” (J Med Chem, 2025).

Calls of active or inactive are those of the source. The calls are words filed in the database; no cut-off is given here.

What all share (type): functional, organism-based
Experiment [1] has as its system Mus musculus. Put plainly: Anti-MASH activity in western diet and CCl4 co-induced male C57BL/6 mouse model assessed as reduction in liver steatosis at 20 mg/kg, po administered with high fat diet and sugar water for 12 weeks with subsequent CCl4 administration three times a week and measured after 4 weeks of compound administration via gavage starting from 9th week by H and E staining based analysis.

The subject of experiment [2] is Mus musculus. Put plainly: Anti-MASH activity in western diet and CCl4 co-induced male C57BL/6 mouse model assessed as reduction in lobular inflammation in liver at 20 mg/kg, po administered with high fat diet and sugar water for 12 weeks with subsequent CCl4 administration three times a week and measured after 4 weeks of compound administration via gavage starting from 9th week by H and E staining based analysis.

Experiment [3] concerns Mus musculus. Nature of the experiment: Anti-MASH activity in western diet and CCl4 co-induced male C57BL/6 mouse model assessed as reduction in ballooning in liver at 20 mg/kg, po administered with high fat diet and sugar water for 12 weeks with subsequent CCl4 administration three times a week and measured after 4 weeks of compound administration via gavage starting from 9th week by H and E staining based analysis.

Experiment [4] deals with Mus musculus. Put plainly: Anti-MASH activity in western diet and CCl4 co-induced male C57BL/6 mouse model assessed as reduction in collagen deposition in liver at 20 mg/kg, po administered with high fat diet and sugar water for 12 weeks with subsequent CCl4 administration three times a week and measured after 4 weeks of compound administration via gavage starting from 9th week by Masson staining based analysis.

For experiment [5], the system named is Mus musculus. Put plainly: Anti-MASH activity in western diet and CCl4 co-induced male C57BL/6 mouse model assessed as reduction in hepatic stellate cell activation in liver at 20 mg/kg, po administered with high fat diet and sugar water for 12 weeks with subsequent CCl4 administration three times a week and measured after …. The settings on record: time 4.0 weeks.

For experiment [6], the system named is Mus musculus. Nature of the experiment: Anti-MASH activity in methionine-choline-deficient high fat diet induced male C57BL/6 mouse model assessed as reduction in vacuolation density in liver at 20 mg/kg, po administered with MCD-HFD for 8 weeks followed by compound administration via gavage for 4 weeks starting from 5th week by H and E staining based analysis.

Experiment [7] relates to Mus musculus. Put plainly: Anti-MASH activity in methionine-choline-deficient high fat diet induced male C57BL/6 mouse model assessed as improvement in liver steatosis at 20 mg/kg, po administered with MCD-HFD for 8 weeks followed by compound administration for 4 weeks via gavage starting from 5th week by H and E staining based analysis.

In the case of `CC[C@H]1[C@@H](O)[C@@H]2[C@H](CC[C@]3(C)[C@@H]([C@H](C)CCC(=O)O)CC[C@@H]23)[C@@]2(C)CC[C@@H](O)C[C@@H]12` [OBETICHOLIC ACID], the outcome in the experiment on Mus musculus [1], in the experiment with Mus musculus [2], with Mus musculus [3], in the experiment on Mus musculus [4], in the experiment on Mus musculus [5] and in the experiment with Mus musculus [6] was Active. In addition, in the experiment with Mus musculus [7], the Activity result is listed as “Active; Modest Improvement In Steatosis Observed”.
